In experiment [1] the target is biotinylated human IL-17 (binding to IL17R/Fc) (Homo sapiens, UniProt Q16552). Put plainly: IL-17 competition ELISA II (captured IL17R/Fc, biotinylated IL-17). The following applies: read-out: ELISA II. As to the method:
In this version, a high binding 96-well plate (Costar #9018) was coated with 20 nM of goat anti-human IgG (KPL 01-10-02) in PBS, 100 μL/well, for 30 min at 37° C. followed by 5 min at 4° C. The plate was then washed in PBST (PBS/0.05% Tween-20) on a plate washer, (BioTek ELx450) then blocked with protein-free blocking buffer (Thermo Scientific #37573) in 250 μL/well for 30 min on a shaker at room temperature, and then washed again. IL17R/Fc (R&D Systems #177-IR; 10 nM in PBST, 100 μL/well) was then added to all wells. The plate was then incubated for 30 minutes at room temperature on the shaker.
While the receptor capture step was underway, compound dilutions were prepared in PBST to a concentration of 1 μM in 1.5 mL tubes. After the receptor capture step, the plate was washed and 50 μL PBST was added to the wells in row B down to row H. Then, 62.5 μL of the 1 μM compound dilutions were added to the wells of row A. From row A, 12.5 μL of the compound solution was removed and added to row B with mixing and this process of 5-fold dilutions was continued, by row, to row G. One of the wells in row A received only PBST (62.5 μL) and this dilution series served as the no competitor control. Then, going up from row G to row A, 50 μL of b-IL-17 (biotinylated human IL-17, R&D Systems #317-ILB; 20 nM) was added to all wells. Row H received 50 μL of PBST and served as the blank row, i.e., no compound and no b-IL-17. The plate was then incubated for 30 minutes at room temperature on the shaker.
After the wash, 100 μL Streptavidin-Horseradish Peroxidase (SA-HRP) (KPL #14-30-00) at 25 ng/mL in PBST was added to each well in the plate and the plate incubated for 30 minutes at room temperature followed by wash and 100 μL SureBlue™ TMB (KPL #52-00-03). After sufficient color development (approx 3-6 minutes), the reaction was fixed by the addition of 100 μL/well 0.5 N HCl and absorbance was measured at 450 nm on a BioTek Synergy 2 plate reader. The absorbances of ‘no competitor’ control and blank control should not exceed 1.5 A.U. and 0.06 A.U., respectively.
Data was processed using BioAssay Enterprise v10.1.4 (CambridgeSoft) software. Linear OD λ450 were plotted against log concentration (x) and fitted to a 4-parameter logistic equation. IC50 was calculated using positive ‘no competitor’ control data as an upper limit and blank control as a lower limit in each assay.

Protein sequences, listed by entry. Tags and fused reporters are not part of them. Residues count along the entry.
UniProt Q16552, 20-155 limits assumed: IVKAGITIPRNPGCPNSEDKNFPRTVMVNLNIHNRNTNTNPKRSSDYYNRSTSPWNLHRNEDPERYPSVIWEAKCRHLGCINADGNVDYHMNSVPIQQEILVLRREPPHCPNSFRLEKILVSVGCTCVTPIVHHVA
UniProt Q16552, 24-155 limits assumed: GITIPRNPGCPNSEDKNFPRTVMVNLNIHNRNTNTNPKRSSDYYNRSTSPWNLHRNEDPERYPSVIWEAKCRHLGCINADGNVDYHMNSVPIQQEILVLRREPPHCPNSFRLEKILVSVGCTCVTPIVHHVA

The target of the next experiment is IL17A (Homo sapiens, UniProt Q16552). The experiment can be described thus: Surface Plasmon Resonance (SPR) analysis of compound interactions with IL17A. The following applies: read-out: SPR; SPR binding to IL17A. How it is done: SPR analysis was carried out with a GE Healthcare (Piscataway, N.J.) Biacore X100 system. Typically, the chip (NTA Biacore Biosensor chip; GE Healthcare BR-1000-34) was first conditioned by injection of 0.35 M EDTA, which also served to remove any immobilized proteins from previous runs. Before immobilization of the recombinant 6-His-tagged IL17, the chip was washed with 0.5 mM nickel chloride in NTA buffer (10 mM HEPES buffer, 0.15 M sodium chloride, 10 μM ethylene diamine tetraacetic acid, 0.005% v/v surfactant P20 (GE Healthcare BR-1000-54)) to form a nickel chelate on the chip. IL17 protein was immobilized onto a NTA chip through its 6-His tag. IL17A was typically injected at 0.25 μM for 60-120 seconds, followed by a stabilization step washing with NTA+0.5% DMSO for 120 seconds or longer.
Five 2-fold or 3-fold serial dilutions of test compound were injected serially onto the chip. […] The rate of refractive index change (RU units/time) and the maximum extend of RU change was measured during the “on” phase of analyte injection, followed by measuring the rate during the “off” phase.
Kinetic parameter fits were conducted using the Biacore SPR Evaluation Program (GE Healthcare) for 1:1 molecular binding fits, after subtracting the baseline average of 2 or more runs in which no analyte was injected. […] Typically, the Kd value calculated through both means agreed within a factor of three. […]

Where only a bound is given, the exact number is not on record here.

In the case of `O=C1CNC(=O)[C@@H](Cc2ccc(NC(=O)[C@H](Cc3ccccc3Cl)NC(=O)Cc3ccccc3)cc2)NC(=O)CC2(CCCC2)CC(=O)N[C@H](C(=O)O)CCCCN1`, the IC50 in experiment [1] was < 100 nM. The Kd at IL17A is < 100 nM.
